Data as given in ChEMBL document CHEMBL1128425, “5-Methyl-1-(3-pyridylcarbamoyl)-1,2,3,5-tetrahydropyrrolo[2,3-f]indole: a novel 5-HT2C/5-HT2B receptor antagonist with improved affinity, selectivity, and oral activity” (J Med Chem, 1995).

The chains behind the UniProt entries cited, without tags or fusion partners. Where a name states a change or a piece, a line headed by the entry shows the natural chain unless it says otherwise.
UniProt P28335: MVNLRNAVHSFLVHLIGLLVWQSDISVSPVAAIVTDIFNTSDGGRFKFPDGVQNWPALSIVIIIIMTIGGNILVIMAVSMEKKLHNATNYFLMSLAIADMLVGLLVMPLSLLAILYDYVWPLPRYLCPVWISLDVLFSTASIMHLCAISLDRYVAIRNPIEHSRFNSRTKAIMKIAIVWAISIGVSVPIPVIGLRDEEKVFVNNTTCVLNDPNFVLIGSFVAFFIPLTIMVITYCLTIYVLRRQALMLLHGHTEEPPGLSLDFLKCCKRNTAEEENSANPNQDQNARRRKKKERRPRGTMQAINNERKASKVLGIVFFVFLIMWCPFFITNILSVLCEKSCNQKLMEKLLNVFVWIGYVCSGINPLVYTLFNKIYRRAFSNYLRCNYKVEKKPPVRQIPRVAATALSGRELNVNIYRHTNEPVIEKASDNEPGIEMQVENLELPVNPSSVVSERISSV

Target: 5-hydroxytryptamine receptor 2C (Homo sapiens, UniProt P28335)
Experiment: Binding affinity against human 5-hydroxytryptamine 2C receptor expressed in 293 cells using [3H]mesulergine
Assay type: cell-based, HEK293
Outline: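 Radioligand binding at cloned human receptors expressed in 293 cells: [³H]ketanserin for 5-HT2A, [³H]mesulergine for 5-HT2C. Values are means ± SEM of n ≥ 3 determinations.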

- Ki: 10 nM
SMILES: Cn1ccc2cc3c(cc21)CCN3C(=O)Nc1cccnc1
